Laboratory results as given in PubChem BioAssay (NCI).
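Growth conditions: 96-well plates. Treatment: test compound, 48 hours, 5 concentrations. Analysis: linear interpolation between bracketing concentrations; unreached endpoints set to highest concentration. Here, GI50 denotes the concentration required for 50% inhibition of growth. TGI marks complete inhibition of growth.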

Columns and labels:
Experiment in all cases: growth of human tumour cells (NCI), 48 h
[1] = tested on: 786-0 renal
[2] = tested on: A498 renal
[3] = tested on: A549 NSCLC
[4] = tested on: ACHN renal
[5] = tested on: BT-549 breast
[6] = tested on: CAKI-1 renal
[7] = tested on: COLO 205 colon
[8] = tested on: DU-145 prostate
[9] = tested on: EKVX NSCLC
[10] = tested on: HCC-2998 colon
[11] = tested on: HCT-116 colon
[12] = tested on: HCT-15 colon
[13] = tested on: HL-60(TB) leukemia
[14] = tested on: HOP-62 NSCLC
[15] = tested on: HOP-92 NSCLC
[16] = tested on: HS 578T breast
[17] = tested on: HT29 colon
[18] = tested on: IGROV1 ovarian
[19] = tested on: K-562 leukemia
[20] = tested on: KM12 colon
[21] = tested on: LOX IMVI melanoma
[22] = tested on: M14 melanoma
[23] = tested on: MALME-3M melanoma
[24] = tested on: MCF7 breast
[25] = tested on: MDA-MB-231 breast
[26] = tested on: MDA-MB-435
[27] = tested on: MDA-N
[28] = tested on: MOLT-4 leukemia
[29] = tested on: NCI-H226 lung
[30] = tested on: NCI-H23 lung
[31] = tested on: NCI-H322M lung
[32] = tested on: NCI-H460 lung
[33] = tested on: NCI-H522 lung
[34] = tested on: NCI/ADR-RES ovarian
[35] = tested on: OVCAR-3 ovarian
[36] = tested on: OVCAR-4 ovarian
[37] = tested on: OVCAR-5 ovarian
[38] = tested on: OVCAR-8 ovarian
[39] = tested on: PC-3 prostate
[40] = tested on: RPMI-8226 leukemia
[41] = tested on: RXF 393 renal
[42] = tested on: SF-268 CNS
[43] = tested on: SF-295 CNS
[44] = tested on: SK-MEL-2 melanoma
[45] = tested on: SK-MEL-28 melanoma
[46] = tested on: SK-MEL-5 melanoma
[47] = tested on: SK-OV-3 ovarian
[48] = tested on: SN12C renal
[49] = tested on: SNB-19 CNS
[50] = tested on: SNB-75 CNS
[51] = tested on: SW-620 colon
[52] = tested on: T-47D breast
[53] = tested on: TK-10 renal
[54] = tested on: U251 CNS
[55] = tested on: UACC-257 melanoma
[56] = tested on: UACC-62 melanoma
[57] = tested on: UO-31 renal

CP1(=O)OCCCO1
GI50 [1]: > 100 µM
TGI [1]: > 100 µM
GI50 [2]: > 100 µM
TGI [2]: > 100 µM
GI50 [3]: > 100 µM
TGI [3]: > 100 µM
GI50 [4]: > 100 µM
TGI [4]: > 100 µM
GI50 [5]: > 100 µM
TGI [5]: > 100 µM
GI50 [6]: > 100 µM
TGI [6]: > 100 µM
GI50 [7]: > 100 µM
TGI [7]: > 100 µM
GI50 [8]: > 100 µM
TGI [8]: > 100 µM
GI50 [9]: > 100 µM
TGI [9]: > 100 µM
GI50 [10]: > 100 µM
TGI [10]: > 100 µM
GI50 [11]: > 100 µM
TGI [11]: > 100 µM
GI50 [12]: > 100 µM
TGI [12]: > 100 µM
GI50 [13]: > 100 µM
TGI [13]: > 100 µM
GI50 [14]: > 100 µM
TGI [14]: > 100 µM
GI50 [15]: > 100 µM
TGI [15]: > 100 µM
GI50 [16]: > 100 µM
TGI [16]: > 100 µM
GI50 [17]: > 100 µM
TGI [17]: > 100 µM
GI50 [18]: > 100 µM
TGI [18]: > 100 µM
GI50 [19]: > 100 µM
TGI [19]: > 100 µM
GI50 [20]: > 100 µM
TGI [20]: > 100 µM
GI50 [21]: > 100 µM
TGI [21]: > 100 µM
GI50 [22]: > 100 µM
TGI [22]: > 100 µM
GI50 [23]: > 100 µM
TGI [23]: > 100 µM
GI50 [24]: > 100 µM
TGI [24]: > 100 µM
GI50 [25]: > 100 µM
TGI [25]: > 100 µM
GI50 [26]: > 100 µM
TGI [26]: > 100 µM
GI50 [27]: > 100 µM
TGI [27]: > 100 µM
GI50 [28]: > 100 µM
TGI [28]: > 100 µM
GI50 [29]: > 100 µM
TGI [29]: > 100 µM
GI50 [30]: > 100 µM
TGI [30]: > 100 µM
GI50 [31]: > 100 µM
TGI [31]: > 100 µM
GI50 [32]: > 100 µM
TGI [32]: > 100 µM
GI50 [33]: > 100 µM
TGI [33]: > 100 µM
GI50 [34]: > 100 µM
TGI [34]: > 100 µM
GI50 [35]: > 100 µM
TGI [35]: > 100 µM
GI50 [36]: > 100 µM
TGI [36]: > 100 µM
GI50 [37]: > 100 µM
TGI [37]: > 100 µM
GI50 [38]: > 100 µM
TGI [38]: > 100 µM
GI50 [39]: > 100 µM
TGI [39]: > 100 µM
GI50 [40]: > 100 µM
TGI [40]: > 100 µM
GI50 [41]: > 100 µM
TGI [41]: > 100 µM
GI50 [42]: > 100 µM
TGI [42]: > 100 µM
GI50 [43]: > 100 µM
TGI [43]: > 100 µM
GI50 [44]: > 100 µM
TGI [44]: > 100 µM
GI50 [45]: > 100 µM
TGI [45]: > 100 µM
GI50 [46]: > 100 µM
TGI [46]: > 100 µM
GI50 [47]: > 100 µM
TGI [47]: > 100 µM
GI50 [48]: > 100 µM
TGI [48]: > 100 µM
GI50 [49]: > 100 µM
TGI [49]: > 100 µM
GI50 [50]: > 100 µM
TGI [50]: > 100 µM
GI50 [51]: > 100 µM
TGI [51]: > 100 µM
GI50 [52]: > 100 µM
TGI [52]: > 100 µM
GI50 [53]: > 100 µM
TGI [53]: > 100 µM
GI50 [54]: > 100 µM
TGI [54]: > 100 µM
GI50 [55]: > 100 µM
TGI [55]: > 100 µM
GI50 [56]: > 100 µM
TGI [56]: > 100 µM
GI50 [57]: > 100 µM
TGI [57]: > 100 µM
